This is an account of results in ChEMBL document CHEMBL4831510, “Novel cannabidiol-carbamate hybrids as selective BuChE inhibitors: Docking-based fragment reassembly for the development of potential therapeutic agents against Alzheimer's disease” (Eur J Med Chem, 2021).

Amino acid sequences for entries named in this document (tags omitted).
UniProt P06276, whole entry: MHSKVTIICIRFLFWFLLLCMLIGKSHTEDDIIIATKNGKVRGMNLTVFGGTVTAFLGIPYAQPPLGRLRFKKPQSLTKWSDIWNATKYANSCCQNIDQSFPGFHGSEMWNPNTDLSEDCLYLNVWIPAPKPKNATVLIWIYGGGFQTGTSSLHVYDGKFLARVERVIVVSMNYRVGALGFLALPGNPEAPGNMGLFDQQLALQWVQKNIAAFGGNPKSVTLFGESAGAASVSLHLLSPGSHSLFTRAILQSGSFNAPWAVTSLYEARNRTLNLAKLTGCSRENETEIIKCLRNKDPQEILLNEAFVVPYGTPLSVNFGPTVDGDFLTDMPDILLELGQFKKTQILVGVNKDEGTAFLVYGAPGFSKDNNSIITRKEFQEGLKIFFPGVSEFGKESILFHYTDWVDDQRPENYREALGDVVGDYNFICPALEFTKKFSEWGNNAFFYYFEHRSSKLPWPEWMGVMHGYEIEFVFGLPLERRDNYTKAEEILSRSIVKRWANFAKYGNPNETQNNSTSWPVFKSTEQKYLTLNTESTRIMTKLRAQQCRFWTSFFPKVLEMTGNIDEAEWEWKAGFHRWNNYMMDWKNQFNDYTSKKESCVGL

SMILES strings stand for the structures. pIC50: −log10 of the molar value.

In general, pIC50 refers to the IC50 on a negative log10 scale, so that one unit is a factor of ten.

In the assay the target is Cholinesterase (Homo sapiens, UniProt P06276).

For the compound `CCN(C)C(=O)Oc1cccc([C@H](C)N(C)C)c1` [RIVASTIGMINE], the pIC50 was 5.57.
